The record followed here is US20250195530A1, “POLQ INHIBITORS” (ASTRAZENECA AB, priority 2022, published 2025).

By UniProt entry, the sequences of proteins in these tests, tags left out. Residues count along the entry.
UniProt O75417, 1780-2590: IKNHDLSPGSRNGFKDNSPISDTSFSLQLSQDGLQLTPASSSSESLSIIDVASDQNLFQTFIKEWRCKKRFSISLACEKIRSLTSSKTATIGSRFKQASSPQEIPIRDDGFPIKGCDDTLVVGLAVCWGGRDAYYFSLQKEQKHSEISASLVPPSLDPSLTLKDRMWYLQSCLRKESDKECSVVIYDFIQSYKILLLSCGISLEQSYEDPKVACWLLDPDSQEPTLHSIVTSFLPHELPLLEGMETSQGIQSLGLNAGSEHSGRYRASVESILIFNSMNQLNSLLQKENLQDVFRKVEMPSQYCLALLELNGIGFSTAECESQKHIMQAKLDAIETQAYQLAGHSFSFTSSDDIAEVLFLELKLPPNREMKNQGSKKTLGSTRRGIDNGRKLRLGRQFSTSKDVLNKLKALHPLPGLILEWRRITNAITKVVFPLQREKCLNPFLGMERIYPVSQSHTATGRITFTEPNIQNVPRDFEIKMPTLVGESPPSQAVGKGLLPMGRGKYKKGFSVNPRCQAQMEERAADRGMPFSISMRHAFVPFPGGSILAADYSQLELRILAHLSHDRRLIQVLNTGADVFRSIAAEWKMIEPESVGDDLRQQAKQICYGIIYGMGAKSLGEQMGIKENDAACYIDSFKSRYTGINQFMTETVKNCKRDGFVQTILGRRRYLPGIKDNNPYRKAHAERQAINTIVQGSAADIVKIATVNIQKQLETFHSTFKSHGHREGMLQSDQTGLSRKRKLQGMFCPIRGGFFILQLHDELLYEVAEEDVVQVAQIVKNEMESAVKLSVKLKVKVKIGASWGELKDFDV

The assay has as its target isolated polymerase domain (I1780-V2590) of DNA polymerase theta (Polθ) (Homo sapiens (Human), UniProt O75417). Kind of assay: biochemical.

The molecule `CC1(Oc2ncnc3c2nc(-c2ccc(OCCN4C[C@@H]5C[C@H]4CN5)cc2Cl)n3Cc2cc(Cl)ccn2)CC1` [Example T487, 8-(4-(2-((1S,4S)-2,5-diazabicyclo[2.2.1]heptan-2-yl)ethoxy)-2-chlorophenyl)-9-((4-chloropyridin-2-yl)methyl)-6-(1-methylcyclopropoxy)-9H-purine] showed a half-inhibitory concentration (IC50) of 6.31 nM.

`CC1(Oc2ncnc3c2nc(-c2ccc(OCCN4CCNCC4)cc2Cl)n3Cc2cc(C(F)F)ccn2)CC1` [Example T488, 8-(2-chloro-4-(2-(piperazin-1-yl)ethoxy)phenyl)-9-((4-(difluoromethyl)pyridin-2-yl)methyl)-6-(1-methylcyclopropoxy)-9H-purine] gave a half-maximal inhibitory concentration (IC50) of 10 nM.

With `Cc1ccnc(Cn2c(-c3ccc(CN4CC5(CCN5)C4)cc3Cl)nc3c(OC4(C)CC4)ncnc32)c1` [Example T489, 8-(4-((1,6-diazaspiro[3.3]heptan-6-yl)methyl)-2-chlorophenyl)-6-(1-methylcyclopropoxy)-9-((4-methylpyridin-2-yl)methyl)-9H-purine], the IC50 was 6.31 nM.

`Cc1ccnc(Cn2c(-c3ccc(N4CCC5(CNC5)C4)cc3Cl)nc3c(OC4(C)CC4)ncnc32)c1` [Example T490, 8-(2-chloro-4-(2,6-diazaspiro[3.4]octan-6-yl)phenyl)-6-(1-methylcyclopropoxy)-9-((4-methylpyridin-2-yl)methyl)-9H-purine] showed an IC50 of 7.94 nM.

`Cc1ccnc(Cn2c(-c3ccc(N4CCC5NCCC54)cc3Cl)nc3c(OC4(C)CC4)ncnc32)c1` (centres unmarked) [Example T492, 8-(2-chloro-4-(hexahydropyrrolo[3,2-b]pyrrol-1(2H)-yl)phenyl)-6-(1-methylcyclopropoxy)-9-((4-methylpyridin-2-yl)methyl)-9H-purine] gave a 50% inhibitory concentration (IC50) of 6.31 nM.

In turn, `Cc1ccnc(Cn2c(-c3ccc(N4C[C@H]5CCN[C@H]5C4)cc3Cl)nc3c(OC4(C)CC4)ncnc32)c1` [Example T494, 8-(2-chloro-4-((3aR,6aR)-hexahydropyrrolo[3,4-b]pyrrol-5(1H)-yl)phenyl)-6-(1-methylcyclopropoxy)-9-((4-methylpyridin-2-yl)methyl)-9H-purine] gave an IC50 of 5.01 nM.

For the molecule `Cc1ccnc(Cn2c(-c3ccc(CC(=O)N4CCNCC4)cc3Cl)nc3c(OC4(C)CC4)ncnc32)c1` [Example T495, 2-(3-chloro-4-(6-(1-methylcyclopropoxy)-9-((4-methylpyridin-2-yl)methyl)-9H-purin-8-yl)phenyl)-1-(piperazin-1-yl)ethan-1-one], 2.51 nM corresponded to half-maximal inhibition (IC50).

For the molecule `Cc1ccnc(Cn2c(-c3ccc(C(=O)N4CCCNCC4)cc3Cl)nc3c(OC4(C)CC4)ncnc32)c1` [Example T496, (3-chloro-4-(6-(1-methylcyclopropoxy)-9-((4-methylpyridin-2-yl)methyl)-9H-purin-8-yl)phenyl)(1,4-diazepan-1-yl)methanone], half-maximal inhibition (IC50) required 12.6 nM.

`CNC(=O)[C@H]1CCN(c2ccc(-c3nc4c(OC5(C)CC5)ncnc4n3Cc3cc(C)ccn3)c(Cl)c2)C1` [Example T497, (S)-1-(3-chloro-4-(6-(1-methylcyclopropoxy)-9-((4-methylpyridin-2-yl)methyl)-9H-purin-8-yl)phenyl)-N-methylpyrrolidine-3-carboxamide] gave a concentration for half-maximal inhibition (IC50) of 6.31 nM.

The molecule `Cc1ccnc(Cn2c(-c3ccc(OCCN4CCNCC4=O)cc3Cl)nc3c(OC4(C)CC4)ncnc32)c1` [Example T498, 1-(2-(3-chloro-4-(6-(1-methylcyclopropoxy)-9-((4-methylpyridin-2-yl)methyl)-9H-purin-8-yl)phenoxy)ethyl)piperazin-2-one] gave an IC50 of 6.31 nM. That is a single-digit nanomolar value.

Take `Cc1ccnc(Cn2c(-c3ccc(OCCN4CCNC(=O)C4)cc3Cl)nc3c(OC4(C)CC4)ncnc32)c1` [Example T499, 4-(2-(3-chloro-4-(6-(1-methylcyclopropoxy)-9-((4-methylpyridin-2-yl)methyl)-9H-purin-8-yl)phenoxy)ethyl)piperazin-2-one]: the 50% inhibitory concentration (IC50) was 6.31 nM.

Molecule `CNC(=O)N1CC[C@@H](Oc2ccc(-c3nc4c(OC5(C)CC5)ncnc4n3Cc3cc(C)ccn3)c(Cl)c2)C1` [Example T501, (R)-3-(3-chloro-4-(6-(1-methylcyclopropoxy)-9-((4-methylpyridin-2-yl)methyl)-9H-purin-8-yl)phenoxy)-N-methylpyrrolidine-1-carboxamide] had an IC50 of 7.94 nM.

Molecule `CC1(Oc2ncnc3c2nc(-c2ccc(OCCCN4CC[C@@H](O)C4)cc2Cl)n3Cc2cc(Cl)ccn2)CC1` [Example T502, (R)-1-(3-(3-chloro-4-(9-((4-chloropyridin-2-yl)methyl)-6-(1-methylcyclopropoxy)-9H-purin-8-yl)phenoxy)propyl)pyrrolidin-3-ol] gave a half-inhibitory concentration (IC50) of 3.16 nM.

`CC1(Oc2ncnc3c2nc(-c2ccc(OCCCN4CC[C@H](O)C4)cc2Cl)n3Cc2cc(Cl)ccn2)CC1` [Example T503, (S)-1-(3-(3-chloro-4-(9-((4-chloropyridin-2-yl)methyl)-6-(1-methylcyclopropoxy)-9H-purin-8-yl)phenoxy)propyl)pyrrolidin-3-ol] showed an IC50 of 5.01 nM.

As to `Cc1ccnc(Cn2c(-c3ccc(OCCN4CCNCC4)cc3Cl)nc3c(OC4(C)CC4)ncnc32)c1F` [Example T504, 8-(2-chloro-4-(2-(piperazin-1-yl)ethoxy)phenyl)-9-((3-fluoro-4-methylpyridin-2-yl)methyl)-6-(1-methylcyclopropoxy)-9H-purine], it took 5.01 nM to reach half-maximal inhibition (IC50).

For the molecule `Cc1ccnc(Cn2c(-c3ccc(CCN4CCCC4)cc3Cl)nc3c(OC4(C)CC4)ncnc32)c1` [Example T505, 8-(2-chloro-4-(2-(pyrrolidin-1-yl)ethyl)phenyl)-6-(1-methylcyclopropoxy)-9-((4-methylpyridin-2-yl)methyl)-9H-purine], half-maximal inhibition (IC50) was put at 5.01 nM.

`Clc1cc(OCCN2CCNCC2)ccc1-c1nc2c(OC3CCC3)ncnc2n1Cc1ccccc1` [Example T506, 9-benzyl-8-(2-chloro-4-(2-(piperazin-1-yl)ethoxy)phenyl)-6-cyclobutoxy-9H-purine] had a 50% inhibitory concentration (IC50) of 12.6 nM. Against the preceding molecule, the IC50 is about 2.5-fold higher.

As to `Cc1ccnc(Cn2c(-c3ccc(OCCN4CCCC4)cc3Cl)nc3c(OC4(C)CC4)ncnc32)c1` [Example T507, 8-(2-chloro-4-(2-(pyrrolidin-1-yl)ethoxy)phenyl)-6-(1-methylcyclopropoxy)-9-((4-methylpyridin-2-yl)methyl)-9H-purine], the IC50 is 6.31 nM.

As to `Cc1ccnc(Cn2c(-c3ccc(CN4CCC(O)CC4)cc3Cl)nc3c(OC4(C)CC4)ncnc32)c1` [Example T508, 1-(3-chloro-4-(6-(1-methylcyclopropoxy)-9-((4-methylpyridin-2-yl)methyl)-9H-purin-8-yl)benzyl)piperidin-4-ol], the IC50 is 3.98 nM.

`Cc1ccnc(Cn2c(-c3ccc(CCN4CC[C@@H](O)C4)cc3Cl)nc3c(OC4(C)CC4)ncnc32)c1` [Example T511, (R)-1-(3-chloro-4-(6-(1-methylcyclopropoxy)-9-((4-methylpyridin-2-yl)methyl)-9H-purin-8-yl)phenethyl)pyrrolidin-3-ol]: the IC50 is 3.98 nM.

In turn, `Cc1ccnc(Cn2c(-c3ccc(OCCN4CC[C@@H](O)C4)cc3Cl)nc3c(OC4(C)CC4)ncnc32)c1` [Example T512, (R)-1-(2-(3-chloro-4-(6-(1-methylcyclopropoxy)-9-((4-methylpyridin-2-yl)methyl)-9H-purin-8-yl)phenoxy)ethyl)pyrrolidin-3-ol] showed a 50% inhibitory concentration (IC50) of 5.01 nM.

In the case of `Cc1ccnc(Cn2c(-c3ccc(OCCCN4CC(O)C4)cc3Cl)nc3c(OC4(C)CC4)ncnc32)c1` [Example T513, 1-(3-(3-chloro-4-(6-(1-methylcyclopropoxy)-9-((4-methylpyridin-2-yl)methyl)-9H-purin-8-yl)phenoxy)propyl)azetidin-3-ol], half-maximal inhibition (IC50) was put at 5.01 nM.

Take `Cc1ccnc(Cn2c(-c3cccc(OCCCN4CC(O)C4)c3Cl)nc3c(OC4(C)CC4)ncnc32)c1` [Example T514, 1-(3-(2-chloro-3-(6-(1-methylcyclopropoxy)-9-((4-methylpyridin-2-yl)methyl)-9H-purin-8-yl)phenoxy)propyl)azetidin-3-ol]: the IC50 was 7.94 nM.

In turn, `Cc1ccnc(Cn2c(-c3ccc(CC(=O)NCC(C)(C)O)cc3Cl)nc3c(OC4(C)CC4)ncnc32)c1` [Example T515, 2-(3-chloro-4-(6-(1-methylcyclopropoxy)-9-((4-methylpyridin-2-yl)methyl)-9H-purin-8-yl)phenyl)-N-(2-hydroxy-2-methylpropyl)acetamide] gave a half-maximal inhibitory concentration (IC50) of 7.94 nM.

For `Cc1ccnc(Cn2c(-c3ccc(OCC(=O)N[C@H](C)CCO)cc3Cl)nc3c(OC4(C)CC4)ncnc32)c1` [Example T516, (R)-2-(3-chloro-4-(6-(1-methylcyclopropoxy)-9-((4-methylpyridin-2-yl)methyl)-9H-purin-8-yl)phenoxy)-N-(4-hydroxybutan-2-yl)acetamide], the concentration for half-maximal inhibition (IC50) was 10 nM.

As to `Cc1ccnc(Cn2c(-c3ccc(OCC(=O)NCC(C)(C)O)cc3Cl)nc3c(OC4(C)CC4)ncnc32)c1` [Example T517, 2-(3-chloro-4-(6-(1-methylcyclopropoxy)-9-((4-methylpyridin-2-yl)methyl)-9H-purin-8-yl)phenoxy)-N-(2-hydroxy-2-methylpropyl)acetamide], the half-maximal inhibitory concentration (IC50) is 7.94 nM.

Molecule `CC[C@H](CO)NC(=O)COc1ccc(-c2nc3c(OC4(C)CC4)ncnc3n2Cc2cc(C)ccn2)c(Cl)c1` [Example T518, (R)-2-(3-chloro-4-(6-(1-methylcyclopropoxy)-9-((4-methylpyridin-2-yl)methyl)-9H-purin-8-yl)phenoxy)-N-(1-hydroxybutan-2-yl)acetamide] had an IC50 of 10 nM.

Consider `Cc1ccnc(Cn2c(-c3ccc(OCC(=O)NC(C)(C)CO)cc3Cl)nc3c(OC4(C)CC4)ncnc32)c1` [Example T519, 2-(3-chloro-4-(6-(1-methylcyclopropoxy)-9-((4-methylpyridin-2-yl)methyl)-9H-purin-8-yl)phenoxy)-N-(1-hydroxy-2-methylpropan-2-yl)acetamide], for which the IC50 was 7.94 nM.

Take `CC[C@@H](O)CNC(=O)COc1ccc(-c2nc3c(OC4(C)CC4)ncnc3n2Cc2cc(C)ccn2)c(Cl)c1` [Example T520, (R)-2-(3-chloro-4-(6-(1-methylcyclopropoxy)-9-((4-methylpyridin-2-yl)methyl)-9H-purin-8-yl)phenoxy)-N-(2-hydroxybutyl)acetamide]: the IC50 is 5.01 nM.
